Assay results: PMC4579573

Target: BRCC36(E30A)-KIAA0157ΔC complex (C. floridanus) (UniProt E2AXC7)
Test: fluorescence polarisation; competition: displacement of the AlexaFluor-488 labeled K63-linked diUb tracer by unlabeled ubiquitin species

| Substance | IC50 [µM] |
| --- | --- |
| mono ubiquitin (from UniProt P0CG48 1-76) (natural protein) | 74 |
| unlabeled K63 linked diUb (from UniProt P0CG48 1-76) | 6.4 |
